Molecular target: GLP-1 receptor (GLP-1R) on rat insulinoma RINm5F cells (rat (RINm5F rat insulinoma cells)) (UniProt P32301)
Test: cell-based or functional assay

- intracellular cAMP level in rat insulinoma RINm5F cells (Lance cAMP 384 kit), IC50: 1 nM
Substance: Exendin-4 (from UniProt P26349) (peptide)

Source: patent US20120244080A1 (GEORGIA STATE UNIVERSITY RESEARCH FOUNDATION, published 2012)
